Assays:
Nociceptin receptor [1] = target: T1, Nociceptin receptor (Homo sapiens, UniProt P41146); assay: Displacement of [3H]-N/OFQ from human nociceptin opioid receptor transfected in CHO cells after 60 mins by beta-plate liquid scintillation counting analysis
Mu-type opioid receptor = Mu-type opioid receptor (Cavia porcellus, UniProt P97266); assay: Displacement of [3H]-DAMGO from mu opioid receptor in Hartley guinea pig brain membranes after 60 mins by beta-plate liquid scintillation counting analysis; conditions: strain Hartley
Nociceptin receptor [2] = target: T1, Nociceptin receptor; assay: Displacement of [3H]-N/OFQ from recombinant nociceptin opioid receptor (unknown origin) expressed in HEK cells; conditions: hek293

Chains of the proteins cited; added tags and fusions are not shown.
UniProt P41146, whole entry: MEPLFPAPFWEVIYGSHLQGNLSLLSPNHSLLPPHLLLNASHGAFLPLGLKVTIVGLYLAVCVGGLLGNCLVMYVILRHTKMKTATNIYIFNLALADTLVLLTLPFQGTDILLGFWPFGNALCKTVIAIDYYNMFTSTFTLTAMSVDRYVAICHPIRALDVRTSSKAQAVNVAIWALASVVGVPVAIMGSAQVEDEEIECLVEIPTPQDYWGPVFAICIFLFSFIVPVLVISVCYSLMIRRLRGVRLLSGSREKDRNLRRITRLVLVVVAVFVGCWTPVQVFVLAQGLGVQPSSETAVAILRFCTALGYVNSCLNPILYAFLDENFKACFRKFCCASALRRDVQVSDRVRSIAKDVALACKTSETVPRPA
UniProt P97266, whole entry: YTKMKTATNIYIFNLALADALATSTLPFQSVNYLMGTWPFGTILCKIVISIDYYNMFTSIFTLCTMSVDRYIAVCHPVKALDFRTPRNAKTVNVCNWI

Q: With `CC[C@@](O)(c1ccccc1)[C@H]1C[C@@]23C=C[C@]1(OC)[C@@H]1Oc4c(O)ccc5c4[C@@]12CCN(CC1CC1)[C@@H]3C5` as the compound, how does the Ki (Nociceptin receptor [1]) read?
A: Its Ki is 197 nM.

Q: How did the Ki (Mu-type opioid receptor) turn out when `CO[C@]12C=C[C@@]3(C[C@@H]1[C@@H](O)c1ccccc1)[C@H]1Cc4ccc(O)c5c4[C@@]3(CCN1CC1CC1)[C@H]2O5` was run?
A: Its Ki is 0.8 nM.

Q: How did the Ki (Nociceptin receptor [2]) turn out when `CO[C@]12CC[C@@]3(C[C@@H]1[C@@](C)(O)c1ccncc1)[C@H]1Cc4ccc(O)c5c4[C@@]3(CCN1CC1CC1)[C@H]2O5` was run?
A: Its Ki is 4.63 µM.
